Laboratory results as given in patent US6740636B2 (priority 2000, dated 2004).

Experiments:
[1] = system: recipient Lewis rats given donor ACI rat grafts; assay: Heterotopic heart transplant rejection model (ACI donor, Lewis recipient); type: in vivo; details: antagonist only, 50 mg/kg s.c. three times per day in 40% cyclodextrin; vehicle 6.8±0.8 days; p=0.0048 vs control
Text: In this assay an increase in allograft survival time corresponds to a decrease in heart transplant rejection in the recipient Lewis rats given donor ACI rat grafts.
Adult male, specific pathogen-free ACI (RT1a) and Lewis (RT1l) rats (Charles River, Boston, Mass.) weighing 200 to 250 g were used as donors and recipients, respectively, in these studies. Vascularized cardiac allografts were heterotopically transplanted into the abdomen of recipient rats using a modification (Nisco, S. et al., (1994), supra) of the technique of Ono and Lindsay (Ono, K. et al., (1969), supra). […] Abdominal allografts were palpated on a daily basis to assess graft function, and rejection was deemed complete when palpable ventricular contractions ceased.
The transplanted hearts were evaluated daily for signs of rejection over the course of the study.

[2] = system: adhesion of monocytes to IL-1β-activated microvascular endothelial cells

C[C@@H]1CN(Cc2ccc(F)cc2)CCN1C(=O)COc1ccc(Cl)cc1NC(N)=O [(2R)-1-((4-chloro-2-(ureido)phenoxy)methyl)carbonyl-2-methyl-4-(4-fluorobenzyl)piperazine]
mean allograft survival time [1]: 8.8±1.2 days | RANTES-mediated and shear-resistant adhesion of monocytes to IL-1β-activated microvascular endothelial cells ([2]; human blood monocytes pre-incubated 10 minutes at 37° C., 1.5 dyn/cm^2): dose-dependently inhibited | percentage of monocytes that undergo rolling or maintain rolling interactions (inverse measure for monocyte arrest) ([2]; human blood monocytes, last 30 second interval of five minute period): dose-dependently inhibited
